Reference: article PMC9052103 (RSC Advances, 2020)

Test system: human erythrocytes
Experiment: Hemolytic activity assay
Type: cell-based

SMILES	Hemolytic toxicity to human erythrocytes
Cc1cc(/C=C2\Sc3ccccc3N2CCCN2CCC(C)CC2)c2ccccc2[n+]1C.[I-] [Compound 4a4, (Z)-1,2-Dimethyl-4-((3-(3-(4-methylpiperidin-1-yl)propyl)benzo[d]thiazol-2(3H)-ylidene)methyl)quinolin-1-ium iodide]	did not exhibit hemolytic toxicity
CC1CCN(CCCN2/C(=C/c3cc[n+](C)c4ccccc34)Sc3ccccc32)CC1.[I-] [Compound 4b4, (Z)-1-Methyl-4-((3-(3-(4-methylpiperidin-1-yl)propyl)benzo[d]thiazol-2(3H)-ylidene)methyl)quinolin-1-ium iodide]	did not exhibit hemolytic toxicity
